Measurements reported in article PMC7358525, “Characterization of PF-6142, a Novel, Non-Catecholamine Dopamine Receptor D1 Agonist, in Murine and Nonhuman Primate Models of Dopaminergic Activation” (Frontiers in Pharmacology, 2020).

Test system: prepulse inhibition of startle
Test: Mouse prepulse inhibition (PPI) and acoustic startle
Format: in vivo
Settings: risperidone 0.1-0.56 mg/kg
Procedure: Drug and behaviorally naïve adult male C57BL/6J mice (9–11 weeks of age; n=8 per dose group) were used for PPI experiments. Subjects were tested individually in SR-Lab acoustic startle chambers (San Diego Instruments, San Diego CA, USA) equipped with a restrainer mounted atop a piezoelectric accelerometer which measured transduced movement in response to the presentation of audio stimuli presented through a speaker mounted 20 cm above the animal. Subjects were acclimated to an anteroom adjacent to the testing room at minimum 60 min prior to testing. […] Data were also recorded for no stimulus values to evaluate background level of response. […] Percent PPI was calculated for each individual subject as the relative change in the 120 dB startle response in the presence of each prepulse intensity using the formula: 100-((prepulse-pulse)/pulse)*100 as previously described ([Ralph-Williams et al., 2003]).
The experiment was analyzed using a two-way mixed model ANOVA (lme4 library in R software). […]

## Cc1nc2n(c(=O)c1CCN1CCC(c3noc4cc(F)ccc34)CC1)CCCC2 [risperidone, reference compound]
  acoustic startle responses (120 dB): dose dependently and significantly reduced
